The chains behind the UniProt entries cited, without tags or fusion partners.
UniProt O43193, whole entry: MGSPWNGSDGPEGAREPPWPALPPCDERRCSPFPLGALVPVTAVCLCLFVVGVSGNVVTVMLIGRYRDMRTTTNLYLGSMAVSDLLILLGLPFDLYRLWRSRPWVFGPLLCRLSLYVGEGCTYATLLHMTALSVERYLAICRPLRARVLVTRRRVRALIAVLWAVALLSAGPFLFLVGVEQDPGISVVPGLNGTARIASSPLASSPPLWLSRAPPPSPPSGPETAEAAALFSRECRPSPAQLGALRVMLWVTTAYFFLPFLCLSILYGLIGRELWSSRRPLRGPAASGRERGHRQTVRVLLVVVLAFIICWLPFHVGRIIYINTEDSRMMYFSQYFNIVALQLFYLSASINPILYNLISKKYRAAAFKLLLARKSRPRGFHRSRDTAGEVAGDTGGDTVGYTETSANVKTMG
UniProt Q92847, whole entry: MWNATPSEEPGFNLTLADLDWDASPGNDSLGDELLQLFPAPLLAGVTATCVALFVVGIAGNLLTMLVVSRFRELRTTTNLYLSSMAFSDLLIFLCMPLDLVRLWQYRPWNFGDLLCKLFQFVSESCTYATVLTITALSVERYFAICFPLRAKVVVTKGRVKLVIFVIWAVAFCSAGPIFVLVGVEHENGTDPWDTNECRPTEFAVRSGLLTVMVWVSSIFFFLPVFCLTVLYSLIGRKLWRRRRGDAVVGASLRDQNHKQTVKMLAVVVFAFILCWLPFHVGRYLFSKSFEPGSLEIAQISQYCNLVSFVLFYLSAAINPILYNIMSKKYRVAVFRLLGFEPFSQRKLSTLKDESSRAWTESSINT

According to patent US7452862B2, “Conformationally-controlled biologically active macrocyclic small molecules as motilin antagonists or ghrelin agonists” (Tranzyme Pharma, Inc., priority 2003, dated 2008):

target: human motilin receptor (Homo sapiens, UniProt O43193); experiment: Competitive radioligand binding assay (motilin receptor), Method B1; settings: read-out: Binding Affinity [Ki (μM)], [125I]-motilin, CHO cell membranes

| Structure (SMILES) | Ki [µM] |
| --- | --- |
| CCC[C@@H]1NC(=O)[C@@H](C(C)C)NC(=O)[C@@H](Cc2c[nH]cn2)NCc2ccccc2Sc2ccccc2CNC1=O | 0.1 to 1 |
| CCC[C@@H]1NC(=O)[C@@H](C(C)C)NC(=O)[C@@H](Cc2ccc(O)cc2)NCc2coc(n2)CNC1=O | 0.1 to 1 |
| CCC(C)[C@@H]1NC(=O)[C@@H](Cc2ccccc2)NCc2ccccc2Sc2ccccc2CNC(=O)[C@H](Cc2ccc(O)cc2)NC1=O (stereo partly drawn) | 1 to 10 |
| CCC[C@@H]1NC(=O)[C@@H](C(C)C)NC(=O)[C@@H](Cc2ccc(O)cc2)NCc2csc(n2)CNC1=O | 0.1 to 1 |

More lines, now with the values ahead:

| Ki [µM] | Structure (SMILES) |
| --- | --- |
| 0.001 to 0.1 | CCC[C@@H]1NC(=O)[C@@H](C(C)C)NC(=O)[C@@H](Cc2cccc(Cl)c2)NCCOc2ccccc2C(C)CCNC1=O (stereo partly drawn) |
| 0.001 to 0.1 | CCC[C@@H]1NC(=O)[C@@H](C(C)C)NC(=O)[C@@H](Cc2cccc(F)c2)NCCOc2ccccc2C(C)CCNC1=O (stereo partly drawn) |
| 0.1 to 1 | CC(C)[C@H]1NC(=O)[C@@H](Cc2cccc(Cl)c2)NCC[C@@H]2O[C@H](CNC(=O)[C@H](CC3CC3)NC1=O)[C@@H](O)[C@H]2O |
| 0.001 to 0.1 | CC(C)[C@H]1NC(=O)[C@@H](Cc2cccc(F)c2)NCCOc2ccccc2C[C@H](C)CNC(=O)[C@H](CN(C)C)NC1=O |
| 0.1 to 1 | CC(C)[C@H]1NC(=O)[C@@H](Cc2cccc(Cl)c2)N[C@H](C)COc2ccccc2CCCNC(=O)[C@H](CNC(=N)N)NC1=O |
| 0.001 to 0.1 | CC(C)[C@H]1NC(=O)[C@@H](Cc2cccc(Cl)c2)NCCOc2ccccc2C(C)(C)CCNC(=O)[C@H](CC2CC2)NC1=O |

target: human ghrelin receptor (hGHS-R1a) (Homo sapiens, UniProt Q92847); experiment: Competitive radioligand binding assay (ghrelin receptor), Method B2; settings: read-out: Binding Affinity [Ki (μM)], [125I]-ghrelin, HEK-293 cell membranes

| Structure (SMILES) | Ki [µM] |
| --- | --- |
| CCC(C)C1NCCCCCCCNC(=O)C(Cc2cccc(Cl)c2)NC(=O)C2(CCCC2)NC1=O (stereo not drawn) | 0.1 to 1 |
| CC(C)CC1NCc2ccccc2Sc2ccccc2CNC(=O)C(Cc2ccccc2)NC(=O)C2(CCCC2)NC1=O (stereo not drawn) | 1 to 10 |
| CCC(C)C1NCCCCCCCCNC(=O)C(Cc2cccc(Cl)c2)NC(=O)C2(CCCC2)NC1=O (stereo not drawn) | 0.1 to 1 |
| CCC(C)C1NCCCCCCNC(=O)C(Cc2cccc(Cl)c2)NC(=O)C2(CCCC2)NC1=O (stereo not drawn) | 0.1 to 1 |
| CCC(C)C1NCCCCCNC(=O)C(Cc2cccc(Cl)c2)NC(=O)C2(CCCC2)NC1=O (stereo not drawn) | 1 to 10 |
| CC1CNC(C2CC2)C(=O)N(C)C(C)C(=O)NC(Cc2ccc(F)cc2)C(=O)NCCCc2ccccc2O1 (stereo not drawn) [compound 244] | 0.001 to 0.1 |
| CCC[C@@H]1NCc2ccccc2Sc2ccccc2CNC(=O)[C@@H](Cc2ccccc2)NC(=O)CN(C)C1=O | 0.1 to 1 |

Other lines, results leading:

| Ki [µM] | Structure (SMILES) |
| --- | --- |
| 0.1 to 1 | CC1CCNC(=O)[C@@H](Cc2ccc(F)cc2)NC(=O)[C@@H](C)N(C)C(=O)[C@H](C2CC2)NCCOc2ccccc21 (stereo partly drawn) |
| 0.001 to 0.1 | CCC(C)[C@@H]1NC[C@H](C)Oc2ccccc2CCCNC(=O)[C@@H](Cc2cccc(Cl)c2)NC(=O)C2(CCCC2)NC1=O (stereo partly drawn) |
| 0.1 to 1 | CCC(C)C1NCCOc2ccccc2C(C)(C)CCNC(=O)C(Cc2cccc(Cl)c2)NC(=O)C2(CCCC2)NC1=O (stereo not drawn) |
| 0.1 to 1 | C[C@@H]1C(=O)N[C@H](Cc2ccc(F)cc2)C(=O)NCCC(C)(C)c2ccccc2OCCN[C@@H](C2CC2)C(=O)N1C |
